Source: paper PMC10979003, “Development and crystal structures of a potent second-generation dual degrader of BCL-2 and BCL-xL” (Nature Communications, 2024)

The chains behind the UniProt entries cited, without tags or fusion partners. Residues count along the entry.
UniProt P10415, 1-207 F124L/G128R/E136A: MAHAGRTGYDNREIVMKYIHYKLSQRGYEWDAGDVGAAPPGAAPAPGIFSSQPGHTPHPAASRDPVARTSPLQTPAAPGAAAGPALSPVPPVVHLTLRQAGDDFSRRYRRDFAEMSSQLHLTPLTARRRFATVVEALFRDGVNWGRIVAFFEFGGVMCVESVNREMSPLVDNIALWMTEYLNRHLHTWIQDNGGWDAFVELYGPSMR

Biological target: T1, BCL-2 E136A/G128R/F124L (Homo sapiens, UniProt P10415, E136A/F124L/G128R)
T1 construct: BCL-xL (aa 2-212) and BCL-2 (aa 1-207) transformed cells were grown in LB broth; made in house; host or cells: E. coli BL21 (DE3) codon plus
Test: AlphaScreen binary binding, BCL-2 E136A/G128R/F124L
Conditions: mean ± s.d., n=3
Experimental: To test the binary/ternary binding affinities of compounds to BCL-2/BCL-xL, AlphaScreen displacement binding assay was performed to test the capabilities of testing compounds to displace a Biotin-tagged Bim (Biotin-[…]) or Bad (Biotin-[…]) from BCL-2 or BCL-xL for BCL-2 and BCL-xL binding affinities, respectively. All reagents were diluted in assay buffer of 25 mM HEPES, pH 7.5, 150 mM NaCl, 0.1% BSA, and 0.005% tween 20 prior incubation. To a 96-well PCR plate (VWR, Cat. No. 82006-636) was added 10 μL Biotin-tagged Bim (15 nM for WT or 50 nM for mutants) or Bad (15 nM for WT or 50 nM for mutants), 10 μL series diluted compounds solution (2 or 3 or 4× dilution), and 10 μL self-made 6×His tagged BCL-2 WT or mutants (25 nM WT or 50 nM mutants) or 10 μL self-made BCL-xL WT and mutants (10 nM WT or 50 nM mutants). […] The luminescence signal was detected on a Biotek’s Synergy Neo2 multimode plate reader installed with an AphaScreen filter cube. The Ki values of each compounds were calculated by fitting data into the “Binding-competitive, One site-Fit Ki” function in GraphPad Prism (9.2.0) based on concentrations of Biotin–peptide used and experimentally determined Kd values of each 6×His protein &&&and Biotin–Peptide pair.

Cc1ncsc1-c1ccc(C(C)NC(=O)C2CC(O)CN2C(=O)C(NC(=O)CCCCCCC(=O)N2CCN(CC3(C)CCC(c4ccc(Cl)cc4)=C(CN4CCN(c5ccc(C(=O)NS(=O)(=O)c6ccc(NC(CCN7CCOCC7)CSc7ccccc7)c(S(=O)(=O)C(F)(F)F)c6)cc5)CC4)C3)CC2)C(C)(C)C)cc1 (stereo not shown) [753b]
Ki: 35.6 ± 6.9 nM
